Test results published in ChEMBL document CHEMBL3351314, “Neutrophil elastase inhibitors as potential anti-inflammatory therapies” (ACS Med Chem Lett, 2014).

Target: T1, Neutrophil elastase (Homo sapiens, UniProt P08246)
T1 sequence (P08246 whole entry): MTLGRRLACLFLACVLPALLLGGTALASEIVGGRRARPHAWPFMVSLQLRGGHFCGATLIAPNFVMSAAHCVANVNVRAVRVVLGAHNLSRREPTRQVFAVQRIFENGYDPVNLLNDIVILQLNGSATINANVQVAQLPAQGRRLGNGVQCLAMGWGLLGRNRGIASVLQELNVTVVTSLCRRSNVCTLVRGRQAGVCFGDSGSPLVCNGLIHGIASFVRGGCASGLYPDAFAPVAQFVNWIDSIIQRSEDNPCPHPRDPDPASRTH
Test: Inhibition of neutrophil elastase in human plasma using MeOSuc-Ala-Ala-Pro-Val-AMC as substrate by fluorescence assay

Structure (SMILES): CN1C(=O)N(c2cccc(C(F)(F)F)c2)C2=C(C(=O)CC2)C1c1ccc(C#N)cc1 (stereo unspecified)
- EC50: 3 nM
